Antibody variant affinities, Ab-14 light chain, assay B

Values reported by Li et al. 2023, doi:10.1038/s41467-023-39022-2 (FLAb copy).

Target peptide (SARS-CoV-2 spike, HR2 region): PDVDLGDISGINAS

Parent scFv Ab-14: VH joined to VL by the linker GGGGSGGGGSGGGGS. Changes lie in the light chain CDRs alone.
VH: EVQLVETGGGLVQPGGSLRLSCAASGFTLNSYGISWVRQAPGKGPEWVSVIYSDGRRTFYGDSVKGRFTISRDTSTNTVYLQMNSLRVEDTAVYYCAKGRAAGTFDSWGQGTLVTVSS
VL: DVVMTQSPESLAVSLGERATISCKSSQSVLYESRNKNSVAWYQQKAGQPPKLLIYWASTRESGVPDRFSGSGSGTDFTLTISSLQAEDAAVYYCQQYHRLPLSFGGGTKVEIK

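The parent was found by panning a naive human phage display library on the peptide. Designed CDR sequences, proposed from the first random library and measured here. Group labels follow the data file (Ctrl: baseline library sampled from a position-specific scoring matrix, with some repeated check sequences; Rand: our label for a block that the file lists under HC and that is probably the random mutants of the ten best first-round binders; GP: Gaussian process model; GPLM: also part of the Gaussian process libraries; HC: hill climbing; Gen: genetic algorithm; Gibbs: Gibbs sampling; a sequence that several methods proposed may carry one label only). The assay is AlphaSeq: two haploid yeast populations carry antibody and antigen on their surface. Mating (16 h, 30 °C) was followed by selection of diploids and sequencing of their barcodes. Each replicate has its own calibration line, from reference interactions of the BCL2 family. Mating was done six times.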

Substitutions are numbered in sequence along the VL above, starting at 1 (not Kabat).
Variants here have at most six changes.
Values are apparent Kd, the geometric mean of the replicates that gave a signal; lower means stronger binding.
"no signal" means that the variant was in the library but no mating with the target was seen in any replicate; the authors take this as a sign of poor binding, and no number exists.
The parent sequence was in this pool as ten entries: three were never detected, three once, and four in most replicates, with averages from 2.2 nM to 240 nM.
A sequence that the file lists under several names has all its replicates pooled.
Values of this round are not directly comparable with the first-round values of the same sequences.
In the paper, a design with two or fewer of six values counts as a poor binder.
Background: pairings of all light chain designs with three empty control strains gave a value in 4% of cases (median 430 nM, 5th percentile 38 nM). Values in that range, when seen in few replicates, are hard to tell from nonspecific mating.

With S25V+W56N+S62M [GP_Gen] the result was 550 pM (6 of 6 replicates).
With S25L+S26R+V29T+L30Q+K36Q [GP_HC] the result was 6.0 nM (6 of 6 replicates).
With S25Q+S26L+N35D+W56H+S62D [GP_HC] the result was 1.9 nM (6 of 6 replicates).
With Q27N+V29Y+K36T+W56E [GP_HC] the result was 13 nM (6 of 6 replicates).
With S25L+Q27L+Y31F+W56N [GP_HC] the result was 620 pM (6 of 6 replicates).
With S25C+S26L+W56H+S62D [GP_HC] the result was 1.3 nM (6 of 6 replicates).
With S25L+S26M+W56E [GP_Gen] the result was 630 pM (6 of 6 replicates).
With S25I+S28D+V29Y+L30W+W56Q+S62V [GP_Gibbs] the result was 540 pM (6 of 6 replicates).
With K24V+S25L+S26Q+V29E+W56D+S62E [GP_Gibbs] the result was 1.6 nM (6 of 6 replicates).
With S25F+L30K+Y31F+W56D [GP_HC] the result was 770 pM (6 of 6 replicates).
With S25V+Q27G+V29Q+W56E [GP_Gen] the result was 3.0 nM (6 of 6 replicates).
With S25N+L30P+W56D+S103L [Ctrl] the result was 870 pM (6 of 6 replicates).
With S25Q+S28A+V29F+Y31M+W56D+S58N [GP_HC] the result was 980 pM (6 of 6 replicates).
With S26E+V29W+W56H+S62Q [GP_HC] the result was 880 pM (6 of 6 replicates).
With S25L+S26P+V29M+W56N [GP_Gen] the result was 850 pM (6 of 6 replicates).
With Q27F+V29A+K36E+W56E+S62Q [GP_HC] the result was 1.8 nM (6 of 6 replicates).
With S26D+R34L+W56T+S103C [Ctrl] the result was 370 nM (4 of 6 replicates).
With S25C+Y31T+N35E+W56S [Ctrl] the result was 1.3 nM (6 of 6 replicates).
With S25C+E32A+W56A+E61S [Ctrl] the result was 3.9 nM (6 of 6 replicates).
With S25L+V29Q+N35M+W56N+S62Q [GP_Gen] the result was 540 pM (6 of 6 replicates).
With Y31D+R34N+N35K [Ctrl] the result was 11 nM (6 of 6 replicates).
With Y31L+S62L [Ctrl] the result was 60 nM (3 of 6 replicates).
With S28E+R34L+W56Y+L100Q+S103M [Ctrl] the result was no signal (0 of 6 replicates).
With S25L+L30E+W56D+S58Q+E61Q [GP_Gibbs] the result was 2.0 nM (6 of 6 replicates).
With S25H+V29F+K36C [Ctrl] the result was 270 nM (3 of 6 replicates).
With V39I+R99G [Ctrl] the result was no signal (0 of 6 replicates).
With L30D+W56T+Q95S [Ctrl] the result was 150 nM (1 of 6 replicates).
With S26P+R34P+N37W+Q96N+H98Y [Ctrl] the result was no signal (0 of 6 replicates).
With S25P+R34E+K36E [Ctrl] the result was 280 nM (15 of 30 replicates).
With K24S+S25L+V29A+W56N+S62W [GP_Gibbs] the result was 620 pM (6 of 6 replicates).
With S25L+S26T+W56H+S62D [GP_HC] the result was 770 pM (6 of 6 replicates).
With S25L+S26P+V29T+K36Q [GP_HC] the result was 3.4 nM (6 of 6 replicates).
With Q27D+R34H+S58N+L102V [Ctrl] the result was 160 nM (1 of 6 replicates).
With R34M+W56E [Ctrl+GPLM_HC] the result was 2.4 nM (12 of 12 replicates).
With S25L+S26P+S38A+W56S [GP_Gen] the result was 1.3 nM (6 of 6 replicates).
With K36D [Ctrl] the result was 290 nM (3 of 6 replicates).
With Y31F [Ctrl+Rand] the result was 240 nM (6 of 12 replicates).
With S25L+S26Q+Y31V+W56N [GP_Gen] the result was 620 pM (6 of 6 replicates).
With S25L+W56D+E61M [GP_Gen] the result was 460 pM (6 of 6 replicates).
With Q27G+S33Q+S62E [Ctrl] the result was 110 nM (5 of 6 replicates).
With K24A+Q27N+E32L+N35S+W56K [Ctrl] the result was 33 nM (2 of 6 replicates).
With S25L+S26E+V29Q+W56N+T59Q+S62R [GP_Gibbs] the result was 1.0 nM (6 of 6 replicates).

4 of these entries, quoted again:

changes	group	Kd	replicates with signal
V39I+R99G	Ctrl	no signal	0 of 6
S25Q+S26L+N35D+W56H+S62D	GP_HC	1.9 nM	6 of 6
S26P+R34P+N37W+Q96N+H98Y	Ctrl	no signal	0 of 6
S25P+R34E+K36E	Ctrl	280 nM	15 of 30